{"sequences": {"note": "Protein sequences, listed by entry. Tags and fused reporters are not part of them. Residues count along the entry.", "UniProt P46531, 19-2555 limits assumed": "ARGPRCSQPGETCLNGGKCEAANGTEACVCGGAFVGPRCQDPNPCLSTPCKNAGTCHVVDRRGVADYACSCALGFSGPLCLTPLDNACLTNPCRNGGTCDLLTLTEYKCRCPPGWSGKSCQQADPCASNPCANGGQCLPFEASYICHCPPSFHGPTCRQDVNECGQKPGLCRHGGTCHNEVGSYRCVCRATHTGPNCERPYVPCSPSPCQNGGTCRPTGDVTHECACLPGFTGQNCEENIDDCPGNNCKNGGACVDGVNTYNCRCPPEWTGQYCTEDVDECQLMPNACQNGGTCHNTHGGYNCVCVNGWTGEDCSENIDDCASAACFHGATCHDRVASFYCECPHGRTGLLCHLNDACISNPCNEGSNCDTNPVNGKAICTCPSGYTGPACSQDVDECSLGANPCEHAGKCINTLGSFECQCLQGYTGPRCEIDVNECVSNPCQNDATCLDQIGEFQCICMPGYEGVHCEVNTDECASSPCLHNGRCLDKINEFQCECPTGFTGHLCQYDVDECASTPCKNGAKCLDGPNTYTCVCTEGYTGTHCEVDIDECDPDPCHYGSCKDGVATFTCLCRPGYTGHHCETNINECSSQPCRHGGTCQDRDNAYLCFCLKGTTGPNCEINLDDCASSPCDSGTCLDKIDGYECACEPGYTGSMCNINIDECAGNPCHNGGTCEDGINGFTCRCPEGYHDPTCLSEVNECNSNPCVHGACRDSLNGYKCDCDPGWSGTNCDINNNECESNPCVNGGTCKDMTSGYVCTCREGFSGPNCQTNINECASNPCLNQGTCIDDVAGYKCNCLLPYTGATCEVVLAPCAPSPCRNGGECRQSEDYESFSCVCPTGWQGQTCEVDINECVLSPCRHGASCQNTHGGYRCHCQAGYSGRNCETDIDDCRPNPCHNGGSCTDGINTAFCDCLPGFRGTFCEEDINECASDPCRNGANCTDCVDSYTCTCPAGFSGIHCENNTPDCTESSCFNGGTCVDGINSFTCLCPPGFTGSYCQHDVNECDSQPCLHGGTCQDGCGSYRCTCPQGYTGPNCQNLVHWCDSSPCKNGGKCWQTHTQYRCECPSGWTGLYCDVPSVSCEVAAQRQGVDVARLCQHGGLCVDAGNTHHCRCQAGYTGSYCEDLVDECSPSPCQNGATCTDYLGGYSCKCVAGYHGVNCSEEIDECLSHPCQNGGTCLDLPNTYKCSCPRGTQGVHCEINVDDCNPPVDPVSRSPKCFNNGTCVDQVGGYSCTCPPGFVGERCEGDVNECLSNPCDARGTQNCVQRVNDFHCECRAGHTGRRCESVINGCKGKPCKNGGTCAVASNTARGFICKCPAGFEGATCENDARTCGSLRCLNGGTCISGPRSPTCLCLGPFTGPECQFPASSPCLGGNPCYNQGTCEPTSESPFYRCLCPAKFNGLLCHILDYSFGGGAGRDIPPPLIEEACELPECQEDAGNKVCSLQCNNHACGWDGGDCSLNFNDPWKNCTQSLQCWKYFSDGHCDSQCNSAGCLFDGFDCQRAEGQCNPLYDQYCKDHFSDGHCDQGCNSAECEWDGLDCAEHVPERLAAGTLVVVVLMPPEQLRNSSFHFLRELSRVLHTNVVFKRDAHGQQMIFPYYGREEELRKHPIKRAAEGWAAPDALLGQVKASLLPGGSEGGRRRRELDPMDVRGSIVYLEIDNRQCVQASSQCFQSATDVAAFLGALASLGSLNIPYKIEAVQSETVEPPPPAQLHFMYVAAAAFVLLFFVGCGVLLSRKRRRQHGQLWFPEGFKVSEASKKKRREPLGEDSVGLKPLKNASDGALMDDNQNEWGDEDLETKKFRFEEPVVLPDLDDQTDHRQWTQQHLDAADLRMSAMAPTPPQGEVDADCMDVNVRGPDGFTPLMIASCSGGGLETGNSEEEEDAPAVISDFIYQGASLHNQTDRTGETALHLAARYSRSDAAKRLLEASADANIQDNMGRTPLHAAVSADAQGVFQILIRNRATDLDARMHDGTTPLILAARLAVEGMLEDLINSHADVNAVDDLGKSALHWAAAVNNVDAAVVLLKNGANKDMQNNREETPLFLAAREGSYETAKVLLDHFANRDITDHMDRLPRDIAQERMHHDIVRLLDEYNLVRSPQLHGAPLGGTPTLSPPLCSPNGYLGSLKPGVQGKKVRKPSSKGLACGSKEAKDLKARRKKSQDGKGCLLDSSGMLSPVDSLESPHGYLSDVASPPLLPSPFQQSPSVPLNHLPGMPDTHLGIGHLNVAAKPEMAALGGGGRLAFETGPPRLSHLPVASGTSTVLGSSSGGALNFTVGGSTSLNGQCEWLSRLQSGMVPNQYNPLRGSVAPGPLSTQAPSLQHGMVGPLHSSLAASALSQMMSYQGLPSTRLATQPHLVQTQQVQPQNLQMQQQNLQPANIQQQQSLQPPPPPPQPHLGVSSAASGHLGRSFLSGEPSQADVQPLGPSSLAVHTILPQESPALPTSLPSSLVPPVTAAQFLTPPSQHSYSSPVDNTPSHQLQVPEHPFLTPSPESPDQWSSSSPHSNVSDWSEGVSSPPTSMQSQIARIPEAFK"}, "source": "patent US9273014B2", "about": "(dated 2016)", "target": "human Notch 1 (Homo sapiens, UniProt P46531)", "conditions": "read-out: Notch 1 (IC50); HeLa cells co-transfected with truncated Notch 1 and CBF1 luciferase reporter; 18 hours incubation", "data": [{"smiles": "Cc1cccc2c1NC(=O)[C@@H](NC(=O)[C@H](CCC(F)(F)F)[C@H](CCC(F)(F)F)C(N)=O)N=C2c1cccc(F)c1", "note": "[Example 1, (2R,3S)—N-((3S)-5-(3-Fluorophenyl)-9-methyl-2-oxo-2,3-dihydro-1H-1,4-benzodiazepin-3-yl)-2,3-bis(3,3,3-trifluoropropyl)succinamide]", "values": [{"measurement": "IC50", "value": 7.8, "unit": "nM"}]}, {"smiles": "CCc1cccc2c1NC(=O)[C@@H](NC(=O)[C@H](CCC(F)(F)F)[C@H](CCC(F)(F)F)C(N)=O)N=C2c1cccc(Cl)c1", "note": "[Example 2, (2R,3S)—N-((3S)-5-(3-Chlorophenyl)-9-ethyl-2-oxo-2,3-dihydro-1H-1,4-benzodiazepin-3-yl)-2,3-bis(3,3,3-trifluoropropyl)succinamide]", "values": [{"measurement": "IC50", "value": 4.9, "unit": "nM"}]}, {"smiles": "CC(C)c1cccc2c1NC(=O)[C@@H](NC(=O)[C@H](CCC(F)(F)F)[C@H](CCC(F)(F)F)C(N)=O)N=C2c1cccc(Cl)c1", "note": "[Example 3, (2R,3S)—N-((3S)-5-(3-Chlorophenyl)-9-isopropyl-2-oxo-2,3-dihydro-1H-1,4-benzodiazepin-3-yl)-2,3-bis(3,3,3-trifluoropropyl)succinamide]", "values": [{"measurement": "IC50", "value": 1.8, "unit": "nM"}]}, {"smiles": "Cc1ccc(C2=N[C@H](NC(=O)[C@H](CCC(F)(F)F)[C@H](CCCC(F)(F)F)C(N)=O)C(=O)Nc3c(Cl)cccc32)cc1C", "note": "[Example 4, (2R,3S)—N-(9-Chloro-5-(3,4-dimethylphenyl)-2-oxo-2,3-dihydro-1H-1,4-benzodiazepin-3-yl)-3-(4,4,4-trifluorobutyl)-2-(3,3,3-trifluoropropyl)succinamide]", "values": [{"measurement": "IC50", "value": 8.5, "unit": "nM"}]}, {"smiles": "Cc1cc(C)cc(C2=N[C@H](NC(=O)[C@H](CCC(F)(F)F)[C@H](CCCC(F)(F)F)C(N)=O)C(=O)Nc3c(Cl)cccc32)c1", "note": "[Example 5, (2R,3S)—N-(9-Chloro-5-(3,5-dimethylphenyl)-2-oxo-2,3-dihydro-1H-1,4-benzodiazepin-3-yl)-3-(4,4,4-trifluorobutyl)-2-(3,3,3-trifluoropropyl)succinamide]", "values": [{"measurement": "IC50", "value": 2.3, "unit": "nM"}]}, {"smiles": "CCc1cccc2c1NC(=O)[C@@H](NC(=O)[C@H](CCC(F)(F)F)[C@H](CCC(F)(F)F)C(N)=O)N=C2c1cccc(C)c1", "note": "[Example 6, (2R,3S)—N-((3S)-9-Ethyl-5-(3-methylphenyl)-2-oxo-2,3-dihydro-1H-1,4-benzodiazepin-3-yl)-2,3-bis(3,3,3-trifluoropropyl)succinamide]", "values": [{"measurement": "IC50", "value": 7.2, "unit": "nM"}]}, {"smiles": "Cc1cccc2c1NC(=O)[C@@H](NC(=O)[C@H](CCC(F)(F)F)[C@H](CCCC(F)(F)F)C(N)=O)N=C2c1cccc(Cl)c1", "note": "[Example 8, (2R,3S)—N-((3S)-5-(3-Chlorophenyl)-9-methyl-2-oxo-2,3-dihydro-1H-1,4-benzodiazepin-3-yl)-3-(4,4,4-trifluorobutyl)-2-(3,3,3-trifluoropropyl)succinamide]", "values": [{"measurement": "IC50", "value": 6, "unit": "nM"}]}, {"smiles": "Cc1cccc(C2=N[C@H](NC(=O)[C@H](CCC(F)(F)F)[C@H](CCC(F)(F)F)C(N)=O)C(=O)Nc3c2cccc3C(F)(F)F)c1", "note": "[Example 9, (2R,3S)—N-((3S)-5-(3-Methylphenyl)-2-oxo-9-(trifluoromethyl)-2,3-dihydro-1H-1,4-benzodiazepin-3-yl)-2,3-bis(3,3,3-trifluoropropyl)succinamide]", "values": [{"measurement": "IC50", "value": 3, "unit": "nM"}]}, {"smiles": "Cc1cc(C)cc(C2=N[C@H](NC(=O)[C@H](CCC(F)(F)F)[C@H](CCC(F)(F)F)C(N)=O)C(=O)Nc3c(Cl)cccc32)c1", "note": "[Example 10, (2R,3S)—N-((3S)-9-Chloro-5-(3,5-dimethylphenyl)-2-oxo-2,3-dihydro-1H-1,4-benzodiazepin-3-yl)-2,3-bis(3,3,3-trifluoropropyl)succinamide]", "values": [{"measurement": "IC50", "value": 2.5, "unit": "nM"}]}, {"smiles": "Cc1cccc(C2=N[C@H](NC(=O)[C@H](CCC(F)(F)F)[C@H](CCC(F)(F)F)C(N)=O)C(=O)Nc3c2cccc3C(C)C)c1", "note": "[Example 12, (2R,3S)—N-((3S)-9-Isopropyl-5-(3-methylphenyl)-2-oxo-2,3-dihydro-1H-1,4-benzodiazepin-3-yl)-2,3-bis(3,3,3-trifluoropropyl)succinamide]", "values": [{"measurement": "IC50", "value": 3, "unit": "nM"}]}, {"smiles": "Cc1cccc(C2=N[C@H](NC(=O)[C@H](CCC(F)(F)F)[C@H](CCCC(F)(F)F)C(N)=O)C(=O)Nc3c(OC4CC4)cccc32)c1", "note": "[Example 14, (2R,3S)—N-((3S)-9-(Cyclopropyloxy)-5-(3-methylphenyl)-2-oxo-2,3-dihydro-1H-1,4-benzodiazepin-3-yl)-3-(4,4,4-trifluorobutyl)-2-(3,3,3-trifluoropropyl)succinamide]", "values": [{"measurement": "IC50", "value": 7.7, "unit": "nM"}]}, {"smiles": "NC(=O)[C@@H](CCCC(F)(F)F)[C@@H](CCC(F)(F)F)C(=O)N[C@H]1N=C(c2ccccc2)c2cccc(OC3CC3)c2NC1=O", "note": "[Example 16, (2R,3S)—N-((3S)-9-(Cyclopropyloxy)-2-oxo-5-phenyl-2,3-dihydro-1H-1,4-benzodiazepin-3-yl)-3-(4,4,4-trifluorobutyl)-2-(3,3,3-trifluoropropyl)succinamide]", "values": [{"measurement": "IC50", "value": 5.8, "unit": "nM"}]}, {"smiles": "Cc1cccc(C2=N[C@H](NC(=O)[C@H](CCC(F)(F)F)[C@H](CCCC(F)(F)F)C(N)=O)C(=O)Nc3c(Cl)cccc32)c1", "note": "[Example 17, (2R,3S)—N-((3S)-9-Chloro-5-(3-methylphenyl)-2-oxo-2,3-dihydro-1H-1,4-benzodiazepin-3-yl)-3-(4,4,4-trifluorobutyl)-2-(3,3,3-trifluoropropyl)succinamide]", "values": [{"measurement": "IC50", "value": 5.7, "unit": "nM"}]}, {"smiles": "Cc1cccc2c1NC(=O)[C@@H](NC(=O)[C@H](CCC(F)(F)F)[C@H](CCCC(F)(F)F)C(N)=O)N=C2c1cccc(C(F)(F)F)c1", "note": "[Example 18, (2R,3S)—N-((3S)-9-Methyl-2-oxo-5-(3-(trifluoromethyl)phenyl)-2,3-dihydro-1H-1,4-benzodiazepin-3-yl)-3-(4,4,4-trifluorobutyl)-2-(3,3,3-trifluoropropyl)succinamide]", "values": [{"measurement": "IC50", "value": 4.6, "unit": "nM"}]}, {"smiles": "NC(=O)[C@@H](CCC(F)(F)F)[C@@H](CCC(F)(F)F)C(=O)N[C@H]1N=C(c2ccccc2)c2cccc(OC3CC3)c2NC1=O", "note": "[Example 19, (2R,3S)—N-((3S)-9-(Cyclopropyloxy)-2-oxo-5-phenyl-2,3-dihydro-1H-1,4-benzodiazepin-3-yl)-2,3-bis(3,3,3-trifluoropropyl)succinamide]", "values": [{"measurement": "IC50", "value": 4.8, "unit": "nM"}]}, {"smiles": "Cc1cccc2c1NC(=O)[C@@H](NC(=O)[C@H](CCC(F)(F)F)[C@H](CCC(F)(F)F)C(N)=O)N=C2c1cccc(C(F)(F)F)c1", "note": "[Example 20, (2R,3S)—N-((3S)-9-Methyl-2-oxo-5-(3-(trifluoromethyl)phenyl)-2,3-dihydro-1H-1,4-benzodiazepin-3-yl)-2,3-bis(3,3,3-trifluoropropyl)succinamide]", "values": [{"measurement": "IC50", "value": 1.6, "unit": "nM"}]}, {"smiles": "Cc1ccccc1C1=N[C@H](NC(=O)[C@H](CCC(F)(F)F)[C@H](CCC(F)(F)F)C(N)=O)C(=O)Nc2c(Cl)cccc21", "note": "[Example 21, (2R,3S)—N-((3S)-9-Chloro-5-(2-methylphenyl)-2-oxo-2,3-dihydro-1H-1,4-benzodiazepin-3-yl)-2,3-bis(3,3,3-trifluoropropyl)succinamide]", "values": [{"measurement": "IC50", "value": 3.3, "unit": "nM"}]}, {"smiles": "Cc1cccc2c1NC(=O)[C@@H](NC(=O)[C@H](CCC(F)(F)F)[C@H](CCC(F)(F)F)C(N)=O)N=C2c1ccc(F)cc1", "note": "[Example 22, (2R,3S)—N-((3S)-5-(4-Fluorophenyl)-9-methyl-2-oxo-2,3-dihydro-1H-1,4-benzodiazepin-3-yl)-2,3-bis(3,3,3-trifluoropropyl)succinamide]", "values": [{"measurement": "IC50", "value": 3.1, "unit": "nM"}]}, {"smiles": "Cc1cccc2c1NC(=O)[C@@H](NC(=O)[C@H](CCC(F)(F)F)[C@H](CCC(F)(F)F)C(N)=O)N=C2c1ccccc1", "note": "[Example 23, (2R,3S)—N-((3S)-9-Methyl-2-oxo-5-phenyl-2,3-dihydro-1H-1,4-benzodiazepin-3-yl)-2,3-bis(3,3,3-trifluoropropyl)succinamide]", "values": [{"measurement": "IC50", "value": 4.7, "unit": "nM"}]}, {"smiles": "NC(=O)[C@@H](CCC(F)(F)F)[C@@H](CCC(F)(F)F)C(=O)N[C@H]1N=C(c2ccccc2)c2cccc(C3CC3)c2NC1=O", "note": "[Example 24, (2R,3S)—N-((3S)-9-Cyclopropyl-2-oxo-5-phenyl-2,3-dihydro-1H-1,4-benzodiazepin-3-yl)-2,3-bis(3,3,3-trifluoropropyl)succinamide]", "values": [{"measurement": "IC50", "value": 1.4, "unit": "nM"}]}, {"smiles": "NC(=O)[C@@H](CCC(F)(F)F)[C@@H](CCC(F)(F)F)C(=O)N[C@H]1N=C(c2cccc(C3CC3)c2)c2cccc(Cl)c2NC1=O", "note": "[Example 25, (2R,3S)—N-((3S)-9-Chloro-5-(3-cyclopropylphenyl)-2-oxo-2,3-dihydro-1H-1,4-benzodiazepin-3-yl)-2,3-bis(3,3,3-trifluoropropyl)succinamide]", "values": [{"measurement": "IC50", "value": 1.7, "unit": "nM"}]}, {"smiles": "COc1cccc2c1NC(=O)[C@@H](NC(=O)[C@H](CCC(F)(F)F)[C@H](CCC(F)(F)F)C(N)=O)N=C2c1cccc(Cl)c1", "note": "[Example 26, (2R,3S)—N-((3S)-5-(3-Chlorophenyl)-9-methoxy-2-oxo-2,3-dihydro-1H-1,4-benzodiazepin-3-yl)-2,3-bis(3,3,3-trifluoropropyl)succinamide]", "values": [{"measurement": "IC50", "value": 3.7, "unit": "nM"}]}, {"smiles": "Cc1cccc(C2=N[C@H](NC(=O)[C@H](CCC(F)(F)F)[C@H](CCC(F)(F)F)C(N)=O)C(=O)Nc3c(Cl)cccc32)c1", "note": "[Example 28, (2R,3S)—N-((3S)-9-Chloro-5-(3-methylphenyl)-2-oxo-2,3-dihydro-1H-1,4-benzodiazepin-3-yl)-2,3-bis(3,3,3-trifluoropropyl)succinamide]", "values": [{"measurement": "IC50", "value": 4.8, "unit": "nM"}]}, {"smiles": "Cc1ccccc1C1=N[C@H](NC(=O)[C@H](CCC(F)(F)F)[C@H](CCC(F)(F)F)C(N)=O)C(=O)Nc2ccccc21", "note": "[Example 31, (2R,3S)—N-((3S)-5-(2-Methylphenyl)-2-oxo-2,3-dihydro-1H-1,4-benzodiazepin-3-yl)-2,3-bis(3,3,3-trifluoropropyl)succinamide]", "values": [{"measurement": "IC50", "value": 2.8, "unit": "nM"}]}, {"smiles": "COc1cccc2c1NC(=O)[C@@H](NC(=O)[C@H](CCC(F)(F)F)[C@H](CCC(F)(F)F)C(N)=O)N=C2c1ccc(C(F)(F)F)cn1", "note": "[Example 33, (2R,3S)—N-((3S)-9-Methoxy-2-oxo-5-(5-(trifluoromethyl)-2-pyridinyl)-2,3-dihydro-1H-1,4-benzodiazepin-3-yl)-2,3-bis(3,3,3-trifluoropropyl)succinamide]", "values": [{"measurement": "IC50", "value": 4.3, "unit": "nM"}]}, {"smiles": "Cc1ccc(C2=N[C@H](NC(=O)[C@H](CCC(F)(F)F)[C@H](CCC(F)(F)F)C(N)=O)C(=O)Nc3ccccc32)cc1", "note": "[Example 36, (2R,3S)—N-((3S)-5-(4-Methylphenyl)-2-oxo-2,3-dihydro-1H-1,4-benzodiazepin-3-yl)-2,3-bis(3,3,3-trifluoropropyl)succinamide]", "values": [{"measurement": "IC50", "value": 12.2, "unit": "nM"}]}]}
